The values that follow come from patent publication US8951734 (TRUSTEES OF COLUMBIA UNIVERSITY IN THE CITY OF NEW YORK, dated 2015).

By UniProt entry, the sequences of proteins in these tests, tags left out. Chains listed by the source or under a name are the forms on record and can include a tag or linker.
UniProt Q9VSR3, other isoform, or with tags, fused parts or gaps: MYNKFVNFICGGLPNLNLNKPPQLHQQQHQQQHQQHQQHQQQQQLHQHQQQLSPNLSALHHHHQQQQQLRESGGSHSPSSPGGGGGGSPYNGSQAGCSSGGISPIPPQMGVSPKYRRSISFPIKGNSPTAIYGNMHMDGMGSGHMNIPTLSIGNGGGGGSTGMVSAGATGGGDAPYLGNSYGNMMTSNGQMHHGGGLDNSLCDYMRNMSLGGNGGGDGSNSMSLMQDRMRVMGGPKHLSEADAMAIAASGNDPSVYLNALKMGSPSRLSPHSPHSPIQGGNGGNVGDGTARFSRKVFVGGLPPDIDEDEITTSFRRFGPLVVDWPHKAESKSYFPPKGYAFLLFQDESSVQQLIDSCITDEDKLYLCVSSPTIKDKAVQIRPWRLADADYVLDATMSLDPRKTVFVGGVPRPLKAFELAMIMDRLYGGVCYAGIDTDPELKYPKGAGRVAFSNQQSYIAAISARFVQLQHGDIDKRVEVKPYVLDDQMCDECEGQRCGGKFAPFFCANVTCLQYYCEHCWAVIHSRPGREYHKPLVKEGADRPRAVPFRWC

The target of this assay is T1, Drosophila CG5735 protein (Drosophila neuronal CPEB) (Drosophila, UniProt Q9VSR3, in part).
T1 construct: also called CG5735RA; Drosophila CPEB
Description: GST pull-down from total Drosophila protein extract, Western blot with anti-CG5735. Background: Immunoblotting shows a protein as a band on a membrane.

B1: recombinant GST (other, UniProt P08515 1-218, looked up)
chain: MSPILGYWKIKGLVQPTRLLLEYLEEKYEEHLYERDEGDKWRNKKFELGLEFPNLPYYIDGDVKLTQSMAIIRYIADKHNMLGGCPKERAEISMLEGAVLDIRYGVSRIAYSKDFETLKVDFLSKLPEMLKMFEDRLCHKTYLNGDHVTHPDFMLYDALDVVLYMDPMCLDAFPKLVCFKKRIEAIPQIDKYLKSSKYIAWPLQGWQATFGGGDHPPK
notes: also called GST alone
Regarding B1, the binding result is “no binding”.
